Test results reported in US6716833B2, “Acetylenic α-amino acid-based sulfonamide hydroxamic acid tace inhibitors” (priority 1999, dated 2004).

Amino acid sequences for entries named in this document (tags omitted). Residues count along the entry.
UniProt P78536, 215-824, species assumed: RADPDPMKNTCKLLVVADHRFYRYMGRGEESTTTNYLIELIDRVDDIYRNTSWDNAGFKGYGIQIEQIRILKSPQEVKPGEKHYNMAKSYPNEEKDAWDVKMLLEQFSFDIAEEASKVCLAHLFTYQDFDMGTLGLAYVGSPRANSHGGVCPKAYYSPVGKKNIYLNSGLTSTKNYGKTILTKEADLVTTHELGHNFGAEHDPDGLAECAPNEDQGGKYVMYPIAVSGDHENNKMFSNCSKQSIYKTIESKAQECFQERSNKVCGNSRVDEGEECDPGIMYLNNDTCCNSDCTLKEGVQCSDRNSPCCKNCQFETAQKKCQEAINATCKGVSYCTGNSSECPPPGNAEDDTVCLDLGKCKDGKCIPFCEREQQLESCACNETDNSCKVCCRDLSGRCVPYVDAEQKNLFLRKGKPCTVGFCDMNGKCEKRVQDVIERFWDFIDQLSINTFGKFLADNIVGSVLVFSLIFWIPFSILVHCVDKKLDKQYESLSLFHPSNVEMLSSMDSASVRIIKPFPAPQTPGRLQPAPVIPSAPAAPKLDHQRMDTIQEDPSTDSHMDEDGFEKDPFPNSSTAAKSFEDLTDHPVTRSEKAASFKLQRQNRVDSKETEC

Assays:
MMP-1 = target: T1, MMP-1 (Homo sapiens, UniProt P03956); assay: MMP-1 inhibition (thiopeptide or fluorescent peptide substrate); assay type: biochemical; conditions: MMP-1 IC50
T1 sequence (P03956 100-469): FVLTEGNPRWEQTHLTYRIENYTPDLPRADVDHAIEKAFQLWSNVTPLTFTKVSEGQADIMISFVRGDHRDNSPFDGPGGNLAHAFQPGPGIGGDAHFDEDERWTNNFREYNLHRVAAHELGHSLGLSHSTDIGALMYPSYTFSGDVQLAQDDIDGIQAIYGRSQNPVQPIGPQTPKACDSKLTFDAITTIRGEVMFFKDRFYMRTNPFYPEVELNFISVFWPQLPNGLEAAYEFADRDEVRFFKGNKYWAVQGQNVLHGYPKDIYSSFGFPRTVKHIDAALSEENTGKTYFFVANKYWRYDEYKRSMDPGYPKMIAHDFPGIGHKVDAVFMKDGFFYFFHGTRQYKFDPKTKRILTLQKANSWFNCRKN

MMP-13 = MMP-13 (Homo sapiens, UniProt P45452); assay: MMP-13 inhibition (thiopeptide or fluorescent peptide substrate); assay type: biochemical
[1] = target: TNF-α converting enzyme (TACE) (Homo sapiens, UniProt P78536); assay: TACE inhibition (fluorescent peptidyl substrate); assay type: biochemical
THP-1 cells = assay: THP-1 soluble protein assay, soluble TNF-α (ELISA); assay type: cell-based; conditions: Homo sapiens, THP-1, 3 μM

SMILES: CC#CCOc1ccc(S(=O)(=O)N(C)C(C(=O)NO)C(C)(C)SCc2cccnc2)cc1 (centres unmarked) [Example 152, 2-[(4-but-2-ynyloxy-Benenesulfonyl)-methyl-amino]-N-hydroxy-3-methyl-3-(pyridin-3-ylmethylsulfanyl)-butyramide]
IC50 (MMP-1): 8.7 nM

SMILES: CC#CCOc1ccc(S(=O)(=O)N(C)C(C(=O)NO)c2ccc(OCCNC)cc2)cc1 (centres unmarked) [Example 192, 2-({[4-(2-Butynyloxy)phenyl]sulfonyl}(methyl)amino)-N-hydroxy-2-{4-[2-(methylamino)ethoxy]phenyl}acetamide]
IC50 (MMP-13; MMP-13 IC50): 27 nM

SMILES: CC#CCOc1ccc(S(=O)(=O)N(C)C(CSCc2cccnc2)C(=O)NO)cc1 (centres unmarked) [Example 155, 2-[(4-but-2-ynyloxy-Benenesulfonyl)-methyl-amino]-N-hydroxy-3-(pyridin-3-ylmethylsulfanyl)-butyramide]
IC50 ([1]; TACE IC50): 5.9 nM

SMILES: CC#CCOc1ccc(S(=O)(=O)NC(C(=O)NO)c2ccc(OCCNC)cc2)cc1 (centres unmarked) [Example 204]
IC50 (MMP-13; MMP-13 IC50): 146 nM

SMILES: CC#CCOc1ccc(S(=O)(=O)NCC(=O)NO)cc1 [Example 25, 2-(4-but-2-ynyloxy-Benzenesulfonylamino)-N-hydroxy-acetamide]
IC50 (MMP-13; read-out: MMP-13 IC50): 185 nM

IC50 (MMP-13; MMP-13 IC50): 7.5 nM
SMILES: CC#CCOc1ccc(S(=O)(=O)N2CCN(Cc3ccccc3)CCC2C(=O)NO)cc1 (centres unmarked) [Example 290, 1-Benzyl-4-{[4-(2-butynyloxy)phenyl]sulfonyl}-N-hydroxy-1,4-diazepane-5-carboxamide]
inhibition at 3 µM (THP-1 cells): 45%

IC50 ([1]; IC 50 nM (In Vitro Inhibition of TACE), Table 15): 38 nM
SMILES: CC#CCOc1ccc(S(=O)(=O)N[C@H](CCCNC(=O)CCCCCCC/C=C\CCCCCCCC)C(=O)NO)cc1 [Example 367, (Z)-N-[(4R)-4-({[4-(But-2-ynyloxy)phenyl]sulfonyl}amino)-5-(hydroxyamino)-5-oxopentyl]octadec-9-enamide]

Where two headings read alike, the source gives them in different places. Each block holds one molecule with its values, some of them ahead of it.
